Source: US20180125068A1, “OCTANOIC, NONANOIC AND DECANOIC FATTY ACIDS WITH PYRETHROID ADULTICIDES” (priority 2016, published 2018)

Test system: Cimex lectularius resistant to deltamethrin (Lex8 strain)
Details: observed, d-Phenothrin 0.375% alone
Method: Synergy was calculated using Abbott's synergy equation described in Levy Y et al., The joint action of fungicides in mixtures: comparison of two methods for synergy calculation, Bulletin OEPP/EPPO Bulletin, 1986, 16, 651-657. Specifically, a ratio greater than 1.0 of observed to expected percent mortality for combinations of two pesticides is evidence of synergy. Expected % mortality was calculated using the formula % Cexp=A+B−[…] where A is percent mortality of A. aegypti exposed to C8, 9, 10, B is percent mortality of A. aegypti exposed to permethrin and Cexp is expected percent mortality of A. aegypti exposed to a combination of C8, 9, 10 and permethrin.
The actives were suspended in 1 milliliter oil-based ultra-low volume sprays and sprayed into the wind tunnel. This exposed 10 adult male beg bugs to the spray. Each test was replicated three times. 1, 2, 3 and 4-day mortality of the bed bugs was then observed.

CC(C)=CC1C(C(=O)OCc2cccc(Oc3ccccc3)c2)C1(C)C (stereo not drawn) [d-Phenothrin, Sumithrin (d-phenothrin)]
% Mortality (3 days): 13.3%
% Mortality (4 days): 13.3%

Read-outs that look alike come from different tables or passages of the source.
